This is an account of results in paper PMC10839966, “Identification and evaluation of small-molecule inhibitors against the dNTPase SAMHD1 via a comprehensive screening funnel” (iScience, 2024).

The chains behind the UniProt entries cited, without tags or fusion partners. Where a name states a change or a piece, a line headed by the entry shows the natural chain unless it says otherwise.
UniProt Q9Y3Z3: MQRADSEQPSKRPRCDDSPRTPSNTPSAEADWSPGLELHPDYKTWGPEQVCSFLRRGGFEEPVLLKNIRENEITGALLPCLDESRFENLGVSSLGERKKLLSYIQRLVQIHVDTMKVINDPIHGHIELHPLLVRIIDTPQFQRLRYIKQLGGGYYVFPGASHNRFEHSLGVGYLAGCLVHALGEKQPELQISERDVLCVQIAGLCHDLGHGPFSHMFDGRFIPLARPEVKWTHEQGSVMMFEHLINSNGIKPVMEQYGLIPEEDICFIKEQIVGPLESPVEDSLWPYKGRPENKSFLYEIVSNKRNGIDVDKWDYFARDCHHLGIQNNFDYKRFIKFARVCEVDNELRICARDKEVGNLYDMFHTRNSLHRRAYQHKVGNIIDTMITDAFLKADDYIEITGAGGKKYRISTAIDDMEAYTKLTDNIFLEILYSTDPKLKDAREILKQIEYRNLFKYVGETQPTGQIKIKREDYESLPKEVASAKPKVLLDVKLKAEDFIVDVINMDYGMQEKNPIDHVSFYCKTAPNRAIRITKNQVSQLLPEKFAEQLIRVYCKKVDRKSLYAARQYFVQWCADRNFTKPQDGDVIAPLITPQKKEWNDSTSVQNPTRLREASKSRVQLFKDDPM

Where two headings read alike, the source gives them in different places.

The term inhibition denotes the drop in the measured response relative to a control, in per cent. The Inhibition is the relative decrease from the control value, in per cent. The term IC50 denotes the concentration that inhibits the measured activity by half.

Assay [1] addresses T1, recombinant SAMHD1 (Homo sapiens, UniProt Q9Y3Z3). Description: High-throughput primary screen, enzyme-coupled malachite green (MG) assay, dGTP substrate, single concentration. The class given is biochemical. More on the design: His-tag (N); made in house; host or cells: E. coli BL21 (DE3). To be noted: for inhibition at 5 µM: compound concentration 5.00E-06 M, 25 μM dGTP, absorbance, hit threshold 23.15%; for Hit: hit flag, hit threshold 23.15% inhibition at 5 μM.

Assay [2] concerns the target T1, recombinant SAMHD1. To be noted: Enzymatic, Absorbance.
Assay [3] addresses T1, recombinant SAMHD1. Description: 11-point dose-response curve (DRC) hit validation, enzyme-coupled MG assay (119 μM to 12.5 nM). Format: biochemical. More on the design: His-tag (N); made in house; host or cells: E. coli BL21 (DE3). Conditions: 11-point dose-response, dGTP substrate.
Assay [4] deals with SAMHD1+/+ and SAMHD1−/− THP-1 cells. Conditions: for Antagonism of cytarabine treatment: TH7126 at 50 μM, TH6342, TH7127, TH7528 at around 30 μM; for Sensitization of THP-1 cells to cytarabine: four days, dose-response matrix with cytarabine, SAMHD1+/+ and SAMHD1−/−.

`CSc1nc(N)cc(N2CCN(C(=O)OC(C)(C)C)CC2)n1` [CBK003458]: in assay [1], the inhibition at 5 µM is -2.57% and the Hit is reported as 0. With `N.N.[Cl][Pt][Cl]` [CBK041610], the figures for the Inhibition in assay [2] (Concentration 1.00E-05 M) and in assay [2] (Concentration 4.00E-05 M) were 93.64% and 95.03%, respectively. With `CCCCNC(=O)N1CCN(c2ccccc2Cl)CC1` [CBK043777], in assay [1], the inhibition at 5 µM came to 2.1% and the Hit is reported as 0.

As for `CC(C)(C)c1ccc(NC(=O)N(CCN)Cc2c[nH]c(-c3ccccc3)n2)cc1` [CBK046297C], the IC50 in assay [3] was determined as 920 nM.

For the molecule `Cn1c(-c2nonc2N)nc2ccccc21` [CBK062642], in assay [1], the inhibition at 5 µM worked out at 2.12% and the Hit was found to be 0.

Take `Cc1ccc(-n2c(O)nnc2-c2ccc(Cl)c(Cl)c2)cc1` [CBK074887]: in assay [3], the IC50 stood at 1600 nM. The same measure, in the same setting: the same measure for `c1ccc(Oc2ccccc2-c2nccnc2NCCc2ccccn2)cc1` [CBK088614]: 3200 nM. With `CCOC(=O)c1cnc(N2CCOCC2)nc1NCCc1c[nH]c2ccccc12` [CBK093605], in assay [1], the inhibition at 5 µM was -0.91% and the Hit came to 0. In the case of `Fc1ccc(-c2cnn(-c3ccc(OC(F)(F)F)cc3)n2)c(F)c1` [CBK112740], in assay [1], the inhibition at 5 µM was -0.0545% and the Hit was found to be 0. `Clc1ccccc1-c1cn2ccnc2c(NCCc2ccccn2)n1` [TH6342, 6-(2-chlorophenyl)-N-(2-(pyridin-2-yl)ethyl)imidazo[1,2-a]pyrazin-8-amine]: the 50% inhibitory concentration (IC50) in assay [3] is 9600 nM. Also, in assay [4], the “Antagonism of cytarabine treatment” value is “mildly observed” and the “Sensitization of THP-1 cells to cytarabine” value (from here on “Sensitization of THP-1 cells”) is reported as “none of TH6342, TH7127, or TH7528 sensitized THP-1 cells to cytarabine”.

Regarding `Nc1ccccc1-c1cn2ccnc2c(NCCc2ccccn2)n1` [TH7126, 6-(2-aminophenyl)-N-(2-(pyridin-2-yl)ethyl)imidazo[1,2-a]pyrazin-8-amine], the “Antagonism of cytarabine treatment” value in assay [4] is “antagonized cytarabine treatment”. `COc1ccccc1-c1cn2ccnc2c(NCCc2ccccn2)n1` [TH7127, 6-(2-methoxyphenyl)-N-(2-(pyridin-2-yl)ethyl)imidazo[1,2-a]pyrazin-8-amine]: in assay [4], the “Antagonism of cytarabine treatment” value is “mildly observed” and the “Sensitization of THP-1 cells” value is recorded as “none of TH6342, TH7127, or TH7528 sensitized THP-1 cells to cytarabine”.

On to `c1ccc(CCNc2nc(-c3cccs3)cn3ccnc23)nc1` [TH7528, N-(2-(pyridin-2-yl)ethyl)-6-(thiophen-2-yl)imidazo[1,2-a]pyrazin-8-amine], for which, in assay [4], the “Antagonism of cytarabine treatment” value was “mildly observed” and the “Sensitization of THP-1 cells” value was “none of TH6342, TH7127, or TH7528 sensitized THP-1 cells to cytarabine”. As for `NC(=O)NO` [hydroxyurea, Hydroxyurea, reference compound], in assay [4], the “Sensitization of THP-1 cells” value is “dose-dependently sensitized cells to cytarabine in a SAMHD1-dependent manner”.
